Assay results published in US20160024487.

Columns and labels:
[1] = tested on: Lys(Dnp)-ATNATQNPRIVGG-Lys(Abz)
[2] = tested on: Lys(Dnp)-ATNATLMPRIVGG-Lys(Abz)
[3] = tested on: Lys(Dnp)-ATNATX4X3PRIVGG-Lys(Abz), X4 = H, X3 = K
[4] = tested on: Lys(Dnp)-ATNATLFPRIVGG-Lys(Abz)
[5] = tested on: Lys(Dnp)-ATNATVNPRIVGG-Lys(Abz)
[6] = tested on: Lys(Dnp)-ATNATX4X3PRIVGG-Lys(Abz), X4 = G, X3 = V
[7] = tested on: Lys(Dnp)-ATNATAMPRIVGG-Lys(Abz)
[8] = tested on: Lys(Dnp)-YDEDENQSPRIVGG-Lys(Abz)
[9] = tested on: Lys(Dnp)-ATNATYGPRIVGG-Lys(Abz)
[10] = tested on: Lys(Dnp)-ATNATMLPRIVGG-Lys(Abz)
[11] = tested on: Lys(Dnp)-ATNATSWPRIVGG-Lys(Abz)
[12] = tested on: Lys(Dnp)-ATNATKFPRIVGG-Lys(Abz)
[13] = tested on: Lys(Dnp)-ATNATMKPRIVGG-Lys(Abz)
[14] = tested on: Lys(Dnp)-ATNATMGPRIVGG-Lys(Abz)
[15] = tested on: Lys(Dnp)-ATNATX4X3PRIVGG-Lys(Abz), X4 = H, X3 = T
[16] = tested on: Lys(Dnp)-ATNATPMPRIVGG-Lys(Abz)
[17] = tested on: Lys(Dnp)-ATNATFNPRIVGG-Lys(Abz)
[18] = tested on: Lys(Dnp)-ATNATLNPRIVGG-Lys(Abz)
[19] = tested on: Lys(Dnp)-ATNATX4X3PRIVGG-Lys(Abz), X4 = V, X3 = L
[20] = tested on: Lys(Dnp)-ATNATSVPRIVGG-Lys(Abz)
[21] = tested on: Lys(Dnp)-ATNATHKPRIVGG-Lys(Abz)
[22] = tested on: Lys(Dnp)-ATNATX4X3PRIVGG-Lys(Abz), X4 = M, X3 = E
[23] = tested on: Lys(Dnp)-ATNATMTPRIVGG-Lys(Abz)
[24] = tested on: Lys(Dnp)-ATNATQRPRIVGG-Lys(Abz)
[25] = tested on: Lys(Dnp)-ATNATPVPRIVGG-Lys(Abz)
[26] = tested on: Lys(Dnp)-ATNATAIPRIVGG-Lys(Abz)
[27] = tested on: Lys(Dnp)-ATNATMNPRIVGG-Lys(Abz)
[28] = tested on: Lys(Dnp)-ATNATX4X3PRIVGG-Lys(Abz), X4 = G, X3 = Q
[29] = tested on: Lys(Dnp)-ATNATSHPRIVGG-Lys(Abz)
[30] = tested on: Lys(Dnp)-ATNATFFPRIVGG-Lys(Abz)
[31] = tested on: Lys(Dnp)-ATNATFPPRIVGG-Lys(Abz)
[32] = tested on: Lys(Dnp)-ATNATGWPRIVGG-Lys(Abz)
[33] = tested on: Lys(Dnp)-ATNATPQPRIVGG-Lys(Abz)
[34] = tested on: Lys(Dnp)-ATNATX4X3PRIVGG-Lys(Abz), X4 = N, X3 = V
[35] = tested on: Lys(Dnp)-ATNATAFPRIVGG-Lys(Abz)
[36] = tested on: Lys(Dnp)-ATNATX4X3PRIVGG-Lys(Abz), X4 = T, X3 = A
[37] = tested on: Lys(Dnp)-ATNATSYPRIVGG-Lys(Abz)
[38] = tested on: Lys(Dnp)-ATNATNHPRIVGG-Lys(Abz)
[39] = tested on: Lys(Dnp)-ATNATMQPRIVGG-Lys(Abz)
[40] = tested on: Lys(Dnp)-ATNATINPRIVGG-Lys(Abz)
[41] = tested on: Lys(Dnp)-ATNATVSPRIVGG-Lys(Abz)
[42] = tested on: Lys(Dnp)-ATNATGAPRIVGG-Lys(Abz)

Human plasma purified alpha-thrombin gave an FIIa kcat/KM [1] of 2000 M⁻¹ s⁻¹ and a Specificity Ratio (FIIa/FXa) [1] of 3.
With Human plasma purified α-thrombin the FIIa kcat/KM [2] was 47000 M⁻¹ s⁻¹, the Functional Selectivity (Specificity*FIIa kcat/KM) [2] was 810000 and the kcat/KM [2] was 47000 M⁻¹ s⁻¹. For the same substance, the FIIa kcat/KM [3] was 1200 M⁻¹ s⁻¹, the Specificity Ratio (FIIa/FXa) [3] was 43 and the FIIa kcat/KM [4] was 15000 M⁻¹ s⁻¹. The Functional Selectivity (Specificity*FIIa kcat/KM) [4] was 2.3e+06, the kcat/KM [4] was 15000 M⁻¹ s⁻¹ and the FIIa kcat/KM [5] was 5200 M⁻¹ s⁻¹. It also gave a Specificity Ratio (FIIa/FXa) [5] of 74, a kcat/KM [5] of 5200 M⁻¹ s⁻¹ and an FIIa kcat/KM [6] of 1200 M⁻¹ s⁻¹. The Specificity Ratio (FIIa/FXa) [6] was 29, the FIIa kcat/KM [7] was 9000 M⁻¹ s⁻¹ and the Specificity Ratio (FIIa/FXa) [7] was 20. The FIIa kcat/KM [8] was 930 M⁻¹ s⁻¹, the Functional Selectivity (Specificity*FIIa kcat/KM) [8] was 2700 and the Specificity Ratio (FIIa/FXa) [8] was 3. It also gave a kcat/KM [8] of 930 M⁻¹ s⁻¹, an FIIa kcat/KM [9] of 3700 M⁻¹ s⁻¹ and a Specificity Ratio (FIIa/FXa) [9] of 88. It also gave a kcat/KM [9] of 3700 M⁻¹ s⁻¹, an FIIa kcat/KM [10] of 11000 M⁻¹ s⁻¹ and a Specificity Ratio (FIIa/FXa) [10] of 20. It also gave a kcat/KM [10] of 11000 M⁻¹ s⁻¹, a kcat/KM [11] of 1500 M⁻¹ s⁻¹ and a kcat/KM [12] of 750 M⁻¹ s⁻¹. The FIIa kcat/KM [13] was 23000 M⁻¹ s⁻¹, the Functional Selectivity (Specificity*FIIa kcat/KM) [13] was 7e+06 and the kcat/KM [13] was 23000 M⁻¹ s⁻¹. For the same substance, the FIIa kcat/KM [14] was 5900 M⁻¹ s⁻¹, the Functional Selectivity (Specificity*FIIa kcat/KM) [14] was 640000 and the kcat/KM [14] was 5900 M⁻¹ s⁻¹. It also gave an FIIa kcat/KM [15] of 1500 M⁻¹ s⁻¹, a Specificity Ratio (FIIa/FXa) [15] of 30 and an FIIa kcat/KM [16] of 14000 M⁻¹ s⁻¹. For the same substance, the Specificity Ratio (FIIa/FXa) [16] was 14, the kcat/KM [16] was 14000 M⁻¹ s⁻¹ and the FIIa kcat/KM [17] was 6200 M⁻¹ s⁻¹. It also gave a Specificity Ratio (FIIa/FXa) [17] of 31, a kcat/KM [17] of 6200 M⁻¹ s⁻¹ and an FIIa kcat/KM [18] of 14000 M⁻¹ s⁻¹. For the same substance, the Specificity Ratio (FIIa/FXa) [18] was 14, the kcat/KM [18] was 14000 M⁻¹ s⁻¹ and the FIIa kcat/KM [19] was 5000 M⁻¹ s⁻¹. It also gave a Specificity Ratio (FIIa/FXa) [19] of 15, a kcat/KM [20] of 890 M⁻¹ s⁻¹ and a kcat/KM [21] of 1200 M⁻¹ s⁻¹. The FIIa kcat/KM [22] was 6800 M⁻¹ s⁻¹, the Specificity Ratio (FIIa/FXa) [22] was 11 and the FIIa kcat/KM [23] was 32000 M⁻¹ s⁻¹. It also gave a Functional Selectivity (Specificity*FIIa kcat/KM) [23] of 1.1e+07, a kcat/KM [23] of 32000 M⁻¹ s⁻¹ and an FIIa kcat/KM [24] of 9600 M⁻¹ s⁻¹. For the same substance, the Specificity Ratio (FIIa/FXa) [24] was 15, the kcat/KM [24] was 9600 M⁻¹ s⁻¹ and the kcat/KM [25] was 13000 M⁻¹ s⁻¹. The FIIa kcat/KM [26] was 12000 M⁻¹ s⁻¹, the Functional Selectivity (Specificity*FIIa kcat/KM) [26] was 660000 and the kcat/KM [26] was 12000 M⁻¹ s⁻¹. The FIIa kcat/KM [27] was 8300 M⁻¹ s⁻¹, the Specificity Ratio (FIIa/FXa) [27] was 19 and the kcat/KM [27] was 8300 M⁻¹ s⁻¹. The FIIa kcat/KM [28] was 1400 M⁻¹ s⁻¹, the Specificity Ratio (FIIa/FXa) [28] was 15 and the kcat/KM [29] was 1100 M⁻¹ s⁻¹. For the same substance, the FIIa kcat/KM [30] was 9500 M⁻¹ s⁻¹, the Functional Selectivity (Specificity*FIIa kcat/KM) [30] was 1.9e+06 and the kcat/KM [30] was 9500 M⁻¹ s⁻¹. It also gave an FIIa kcat/KM [31] of 730 M⁻¹ s⁻¹, a Specificity Ratio (FIIa/FXa) [31] of 118 and a kcat/KM [31] of 730 M⁻¹ s⁻¹. The FIIa kcat/KM [32] was 2900 M⁻¹ s⁻¹, the Specificity Ratio (FIIa/FXa) [32] was 36 and the kcat/KM [32] was 2900 M⁻¹ s⁻¹. For the same substance, the FIIa kcat/KM [33] was 26000 M⁻¹ s⁻¹, the Functional Selectivity (Specificity*FIIa kcat/KM) [33] was 620000 and the kcat/KM [33] was 26000 M⁻¹ s⁻¹. For the same substance, the FIIa kcat/KM [34] was 550 M⁻¹ s⁻¹, the Specificity Ratio (FIIa/FXa) [34] was 32 and the FIIa kcat/KM [35] was 5900 M⁻¹ s⁻¹. It also gave a Functional Selectivity (Specificity*FIIa kcat/KM) [35] of 1.6e+06, a kcat/KM [35] of 5900 M⁻¹ s⁻¹ and an FIIa kcat/KM [36] of 630 M⁻¹ s⁻¹. For the same substance, the Specificity Ratio (FIIa/FXa) [36] was 32, the FIIa kcat/KM [37] was 1100 M⁻¹ s⁻¹ and the Specificity Ratio (FIIa/FXa) [37] was 82. For the same substance, the kcat/KM [37] was 1100 M⁻¹ s⁻¹, the kcat/KM [38] was 660 M⁻¹ s⁻¹ and the FIIa kcat/KM [39] was 33000 M⁻¹ s⁻¹. It also gave a Functional Selectivity (Specificity*FIIa kcat/KM) [39] of 1.1e+06, a kcat/KM [39] of 33000 M⁻¹ s⁻¹ and an FIIa kcat/KM [40] of 10000 M⁻¹ s⁻¹. For the same substance, the Specificity Ratio (FIIa/FXa) [40] was 12, the Functional Selectivity (Specificity*FIIa kcat/KM) [41] was 650000 and the kcat/KM [42] was 950 M⁻¹ s⁻¹.
